These results are taken from patent US8470829B2 (priority 2004, dated 2013).

Protein sequences, listed by entry. Tags and fused reporters are not part of them. Lines headed by an entry give the natural chain unless they say otherwise; changes in a name come on top.
UniProt P10275: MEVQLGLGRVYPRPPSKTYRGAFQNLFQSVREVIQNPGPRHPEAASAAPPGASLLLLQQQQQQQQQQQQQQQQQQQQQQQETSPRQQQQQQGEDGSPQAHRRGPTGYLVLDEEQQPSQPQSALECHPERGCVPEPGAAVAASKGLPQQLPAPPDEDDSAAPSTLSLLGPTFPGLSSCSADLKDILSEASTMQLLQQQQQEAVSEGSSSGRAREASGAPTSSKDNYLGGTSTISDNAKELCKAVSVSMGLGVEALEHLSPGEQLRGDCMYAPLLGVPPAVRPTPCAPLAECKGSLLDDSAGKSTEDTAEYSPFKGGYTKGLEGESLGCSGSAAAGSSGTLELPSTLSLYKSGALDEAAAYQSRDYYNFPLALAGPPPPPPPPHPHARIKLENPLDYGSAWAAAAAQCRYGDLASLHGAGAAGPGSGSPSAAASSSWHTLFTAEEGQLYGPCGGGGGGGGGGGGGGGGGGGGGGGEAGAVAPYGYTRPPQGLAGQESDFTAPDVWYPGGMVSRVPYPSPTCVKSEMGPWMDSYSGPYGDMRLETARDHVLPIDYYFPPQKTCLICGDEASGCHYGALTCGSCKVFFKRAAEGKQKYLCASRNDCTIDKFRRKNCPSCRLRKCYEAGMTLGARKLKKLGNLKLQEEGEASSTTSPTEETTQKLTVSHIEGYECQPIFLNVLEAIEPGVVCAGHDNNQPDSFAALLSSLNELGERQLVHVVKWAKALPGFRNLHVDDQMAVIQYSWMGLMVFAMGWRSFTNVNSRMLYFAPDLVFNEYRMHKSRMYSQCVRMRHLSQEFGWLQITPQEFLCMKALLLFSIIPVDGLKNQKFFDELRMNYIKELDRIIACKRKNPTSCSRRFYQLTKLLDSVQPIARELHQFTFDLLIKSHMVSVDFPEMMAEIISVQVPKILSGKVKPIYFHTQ

This assay addresses androgen receptor (Homo sapiens, UniProt P10275). In words: Measurement of agonist effect on androgen receptor (reporter gene assay, 11A11B2 cells). Further details: expressed in transfected cells. Conditions: compound concentration showing a transcription activity of 5% (0.1 nmol/L DHT = 100%, assay medium alone = 0%), 48 hours. It counts as cell-based. The procedure:
HeLa cells (purchased from Dai-Nippon Seiyaku K. K.) were cultured overnight in Dulbecco's Modified Eagle Medium containing no phenol red, but containing 3% charcoal-treated fetal bovine serum (hereafter referred to as DCC-FBS) (this medium is hereafter referred to as phenol-red-free DMEM). […]
The 11A11B2 cells were inoculated in a white clear-bottomed 96-well microplate (COSTAR) so that the cell concentration was 1.0×10^4/well, and were cultured overnight using phenol-red-free DMEM containing 3% DCC-FBS (hereafter referred to as the assay medium). Samples of the assay medium containing the compounds of the Examples and compounds of the Comparative Examples were added so that the final concentrations of the compounds of the Examples and compounds of the Comparative Examples were 1, 10, 100, 1,000 and 10,000 nmol/L), and the cells were cultured for 48 hours, after which the transcription activity value was measured. The transcription activity was measured using a Bright-Glo™ Luciferase Assay System (Promega).
The transcription activity rates of the compounds of the Examples were calculated from the transcription activity measured by the abovementioned method, with the transcription activity value obtained at 0.1 nmol/L DHT taken as 100%, and the transcription activity value in the case of the assay medium alone taken as 0%. […]
(In general: A reporter such as luciferase makes a cellular process visible.)

`CCNS(=O)(=O)N1CCC(N2C(=S)N(c3ccc(C#N)c(C(F)(F)F)c3)C(=O)C2(C)C)CC1` [Example 42, 4-[3-(1-ethylaminosulfonylpiperidin-4-yl)-4,4-dimethyl-5-oxo-2-thioxoimidazolidin-1-yl]-2-trifluoromethylbenzonitrile]: the EC5 is over 10 µM.
